{
  "source": "patent US5773522A",
  "about": "“Polymer-bound camptothecin derivatives” (priority 1993, dated 1998)",
  "test_system": "healthy C57Bl/F mice",
  "assay": "Toxicity (LD10, LD50) in healthy mice",
  "type": "in vivo",
  "description": "Toxicity of copolymer of N-(2-hydroxypropyl)methacryl-amide, 20-O-[N-methacryloylglycyl-L-phenylalanyl-L-leucylglycyl ] camptothecin and N-(2-hydroxypropyl) methacryloylglycinamide (A2) was evaluated in healthy C57Bl/F mice, treatment i.v. in comparison with camptothecin (CPT).",
  "data": [
    {"substance": "Copolymer of N-(2-hydroxypropyl)methacrylamide, 20-O-[N-methacryloylglycyl -L-phenylalanyl-L-leucylglycyl] camptothecin and N-(2-hydroxypropyl) methacryloylglycinamide [Compound A2]", "values": [
      {"measurement": "toxicity (in words)", "setting": "compared with camptothecin", "result": "low toxicity"},
      {"measurement": "LD10 (dose inducing 10% of death mice)", "setting": "i.v., healthy C57B1/F mice", "result": 129, "unit": "mg/kg"},
      {"measurement": "LD50 (dose inducing 50% of death mice)", "setting": "i.v., healthy C57B1/F mice", "result": 151, "unit": "mg/kg"}
    ]}
  ]
}
